Assay results taken from patent US10398592B2, “Diagnostic methods and apparatus” (ForSight Vision4, Inc., priority 2011, dated 2019).
Like-named read-outs stand apart in the source and are kept apart here.

Assays:
[1] = Diffusion coefficients and equivalent size estimated from molecular weight; assay type: physicochemical
Source text: If the reservoir solution is aqueous or has a viscosity similar to water, the value for the diffusion coefficient of the therapeutic agent (TA) in water at the temperature of interest may be used. […] (Molokhia et al, Exp Eye Res 2008): DTA,37C=DBSA,20C(η20C/η37C)(MWBSA/MWTA)^1/3 where MW refers to the molecular weight of either BSA or the test compound and η is the viscosity of water.
The diffusion constant of the stabilizer can be determined, for example, based on an estimate of hydrodynamic radius corresponding to the cube root of the molecular weight as described herein.
The diffusion coefficients of Table 2 can be determined based on weight for molecular weights up to about 2.5 M Daltons, and based on size above about 2.5 M Daltons.

[2] = hydrodynamic diameter of model proteins; cited from earlier work
[3] = in water at 20 C, measured value (Molokhia et al), cited from earlier work

bovine serum albumin [BSA]
Diff Coeff ([1]; Table 2, 37 C, estimated from molecular weight): 9.0E−07 cm^2/s
Diff Coeff ([1]; Temp 37 C, estimated from BSA value at 20 C): 9.1E−07 cm^2/s
Equiv volume ([1]; assumes unit density, per molecule): 109.6 nm^3
D/(Ran D) ([1]; diffusion relative to Ranibizumab): 0.90
diameter [2]: 7.2 nm
Diff Coeff [3]: 6.1E−07 cm^2/s
Diff Coeff ([3]; listed as bovine serum albumin): 6.1 e-7 cm^2/s
